Data from PMC7092418 (Genes and Environment, 2020).

Columns and labels:
S. typhimurium TA1535 = assay: Ames mutagenicity assay, strain TA1535 (hisG46); settings: S9 for AFB1
S. typhimurium YG9029 = settings: slope of dose-response curve, AF-2: only zero plus 2 first doses
S. typhimurium YG9028 = assay: Ames mutagenicity assay, strain YG9028 overexpressing PolRI* (MucA' + MucB); settings: slope of dose-response curve, AF-2: only zero plus 2 first doses
S. typhimurium TA100 = assay: Ames mutagenicity assay, strain TA100 (hisG46, pKM101); settings: slope of dose-response curve, S9 for AFB1, AF-2: only zero plus 2 first doses
human skin fibroblasts = settings: cited from earlier work
Chinese hamster cells = settings: cited from earlier work

For [N-]=[N+]=NCC(O)CO (stereo not shown), which Specific mutagenicity (S. typhimurium TA1535; TA1535, IPTG 0.2 mM in top agar, slope of dose-response curve) is on record?
Its Specific mutagenicity is 1.151 revertants/plate/nmole.

What about the Specific mutagenicity (S. typhimurium TA1535; TA1535, no IPTG, slope of dose-response curve (linear regression), 20-min preincubation) of the same molecule?
The Specific mutagenicity was 1.047 revertants/plate/nmole.

And the Specific mutagenicity (S. typhimurium YG9029; YG9029, IPTG 0.2 mM (induced lac promoter))?
The Specific mutagenicity was 0.464 revertants/plate/nmole.

And the Specific mutagenicity (S. typhimurium YG9029; YG9029, no IPTG (uninduced lac promoter))?
The Specific mutagenicity was 0.753 revertants/plate/nmole.

And the Specific mutagenicity (S. typhimurium YG9028; YG9028, IPTG 0.2 mM (induced lac promoter))?
The Specific mutagenicity was 0.128 revertants/plate/nmole.

What about the Specific mutagenicity (S. typhimurium YG9028; YG9028, no IPTG (uninduced lac promoter)) of the same molecule?
The Specific mutagenicity was 0.42 revertants/plate/nmole.

And the Specific mutagenicity (S. typhimurium TA100; TA100, IPTG 0.2 mM in top agar)?
The Specific mutagenicity was 0.646 revertants/plate/nmole.

And the Specific mutagenicity (S. typhimurium TA100; TA100, no IPTG)?
The Specific mutagenicity was 0.817 revertants/plate/nmole.

For azidoalanine, which “Genotoxicity (SCEs and unscheduled DNA synthesis)” value (human skin fibroblasts) is on record?
Its value is “did not show any appreciable genotoxicity”.

And the “Genotoxicity (SCEs and unscheduled DNA synthesis)” value (Chinese hamster cells)?
The value was “did not show any appreciable genotoxicity”.

Where two headings read alike, the source gives them in different places.
